These results are taken from patent US5326774A, “Pharmaceutical preparation of antihypertensive, antianginal, antiarrhythmic and antiglaucomic action” (priority 1992, dated 1994).

The data set can be described thus: in vivo. Conditions: mouse.

As a reminder, the LD50 is the dose at which mortality reaches 50%. Read a low LD50 as greater toxicity. As to `CC(CCc1ccccc1)NCC(O)c1ccc(O)c(C(N)=O)c1` (centres unmarked) [Labetalol, labetalol], the median lethal dose (LD50) at 72 h reads like this: (iv) 97.5 mg/kg; (po) 660 mg/kg.
